Data from PMC9130538, “Amino acids in transmembrane helix 1 confer major functional differences between human and mouse orthologs of the polyspecific membrane transporter OCT1” (The Journal of Biological Chemistry, 2022).

Key:
human OCT1 = target: T1, human OCT1 (Homo sapiens, UniProt O15245); experiment: Cellular uptake by HEK293 cells overexpressing human OCT1 (wildtype); conditions: for vmax ± SD, hOCT1: HEK293 stably transfected, 2 min uptake, 37 °C, pH 7.4, OCT1-mediated uptake
T1 sequence (O15245 1-554): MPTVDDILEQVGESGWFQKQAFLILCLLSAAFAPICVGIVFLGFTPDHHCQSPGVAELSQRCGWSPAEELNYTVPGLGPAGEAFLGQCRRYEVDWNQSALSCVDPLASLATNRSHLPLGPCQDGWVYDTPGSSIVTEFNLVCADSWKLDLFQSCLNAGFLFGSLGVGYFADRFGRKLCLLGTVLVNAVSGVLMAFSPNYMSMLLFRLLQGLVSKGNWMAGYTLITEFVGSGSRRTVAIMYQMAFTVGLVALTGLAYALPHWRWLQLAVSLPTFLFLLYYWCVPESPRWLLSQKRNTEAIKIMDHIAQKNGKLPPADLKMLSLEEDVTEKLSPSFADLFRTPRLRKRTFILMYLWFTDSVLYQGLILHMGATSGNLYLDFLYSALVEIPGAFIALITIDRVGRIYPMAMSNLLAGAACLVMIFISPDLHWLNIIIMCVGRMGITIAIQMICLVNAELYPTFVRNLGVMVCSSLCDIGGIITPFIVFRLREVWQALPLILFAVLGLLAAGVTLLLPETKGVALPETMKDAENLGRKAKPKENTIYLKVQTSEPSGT
Experimental: (§1) Generation and characterization of these cell lines has been described in detail before ([34], [48], [49]). Cells were cultured in Dulbecco’s Modified Eagle’s Medium supplemented with 10% fetal bovine serum, 100 U/ml penicillin, and 100 μg/ml streptomycin at 37 °C and 5% CO2 and were passaged twice a week.
(§2) At 48 h prior to the experiment, 6 × 10^5 cells were seeded per well in 12-well plates. When using transiently transfected cells, 5 × 10^5 T-REx-293 cells (Life Technologies) were seeded per well in 12-well plates 72 h prior to the experiment, and they were transfected 24 h later as described previously. Twelve-well plates were precoated with poly-D-lysine.
(§3) Cellular uptake experiments were performed at 37 °C and pH 7.4 using HBSS supplemented with 10 mM Hepes (in the following referred to as HBSS+). Cells were washed with 1 ml prewarmed (37 °C) HBSS+, and the uptake was initiated by adding 400 μl of prewarmed HBSS+ containing the substrate. Uptake was allowed for exactly 2 min and afterward stopped by adding 2 ml ice-cold HBSS+. Cells were washed twice with 2 ml ice-cold HBSS+ and lysed with 80% acetonitrile supplemented with internal standard, 0.1 N NaOH/0.1% SDS, or radioimmunoprecipitation buffer for LC–MS/MS, liquid scintillation counting, or fluorescence spectroscopy detection, respectively. Intracellular substrate concentrations were measured as described in the following and were then normalized to the amount of total protein in the samples as measured using the bicinchoninic acid assay ([51]).
For LC–MS/MS quantification of intracellular substrate concentrations, the cell lysate was centrifuged at 16,000g for 15 min, and 350 μl of supernatant was evaporated to dryness under nitrogen flow at 40 °C. The sample was reconstituted with 200 μl 0.1% formic acid, and between 2 and 30 μl were injected into the LC–MS/MS system (Table S1).
An API4000 QTRAP tandem mass spectrometer with ESI interface (AB SCIEX) was used, coupled to a Shimadzu Nexera X2 UHPLC system with LC 30AD pumps and SiL 30AC autosampler (Shimadzu).
Intracellular concentrations of radioactively labeled substrates MPP^+ and TEA^+ were quantified using liquid scintillation counting. To this end, 400 μl cell lysate was transferred into a 20 ml scintillation vial, 9 ml Aquasafe 500 Plus liquid scintillator (both Zinsser Analytics) was added, and the sample was measured in the Scintillation Counter LS6500 (Beckman Coulter).
For both analyses, SPSS Statistics, version 28 (SPSS, Inc, IBM) was used.

mouse Oct1 = target: T2, mouse Oct1 (Mus musculus, UniProt O08966); experiment: Cellular uptake by HEK293 cells overexpressing mouse Oct1 (wildtype); conditions: HEK293 stably transfected, 2 min uptake, 37 °C, pH 7.4, OCT1-mediated uptake
T2 sequence (O08966 1-556): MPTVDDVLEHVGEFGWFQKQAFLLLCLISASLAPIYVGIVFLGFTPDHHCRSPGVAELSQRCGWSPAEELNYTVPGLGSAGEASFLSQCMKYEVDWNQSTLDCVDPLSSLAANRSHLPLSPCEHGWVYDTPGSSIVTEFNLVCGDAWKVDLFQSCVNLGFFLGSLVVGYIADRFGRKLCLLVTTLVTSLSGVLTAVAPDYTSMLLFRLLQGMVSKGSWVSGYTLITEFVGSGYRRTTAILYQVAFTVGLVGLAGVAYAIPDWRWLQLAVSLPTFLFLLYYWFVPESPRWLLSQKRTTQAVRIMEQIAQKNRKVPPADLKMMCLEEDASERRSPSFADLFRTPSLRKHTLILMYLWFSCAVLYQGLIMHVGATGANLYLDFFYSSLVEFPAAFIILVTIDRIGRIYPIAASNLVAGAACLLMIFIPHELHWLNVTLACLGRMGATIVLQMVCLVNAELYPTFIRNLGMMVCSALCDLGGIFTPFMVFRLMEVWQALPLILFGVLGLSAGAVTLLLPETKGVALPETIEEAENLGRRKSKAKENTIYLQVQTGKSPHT
Experimental: as §1, §2
as §3, with “Cells were washed with 1 ml prewarmed (37 °C) HBSS+, and the uptake was initiated by adding 400 μl of prewarmed HBSS+ containing the substrate. Uptake was allowed for exactly 2 min and afterward stopped by adding 2 ml ice-cold HBSS+.” left out, “([51]). […]” for “([51]).”

human OCT1 Cys36Tyr = target: T3, human OCT1 Cys36Tyr (Homo sapiens, UniProt O15245, C36Y); experiment: Uptake by HEK293 cells overexpressing Cys36Tyr human OCT1; format: cell-based; conditions: 2 min, transient transfection
T3 construct: expressed in transfected cells
T3 sequence (O15245 1-554 C36Y): T1 sequence (O15245 1-554) with C36Y
Experimental: (§4) Human–mouse chimeric OCT1 constructs were generated using the overlap extension method ([50]) and have been characterized before ([34]). […] All constructs were validated by capillary sequencing of the complete open reading frame of OCT1 before transfection into HEK293 cells.
(§5) For transient transfection of OCT1 constructs into HEK293 cells for uptake experiments, 5 × 10^5 T-REx-293 cells (Life Technologies) were seeded per well in 12-well plates precoated with poly-D-lysine. […] At 48 h later, transfection efficacy was assessed microscopically by visualizing the GFP signal of the cotransfected GFP vector, and the cells were subsequently used for uptake experiments. […]
as §3, with “Cells were washed with 1 ml prewarmed (37 °C) HBSS+, and the uptake was initiated by adding 400 μl of prewarmed HBSS+ containing the substrate. Uptake was allowed for exactly 2 min and afterward stopped by adding 2 ml ice-cold HBSS+.” left out, “([51]). […]” for “([51]).”

mouse Oct1 Leu32Phe = target: T4, mouse Oct1 Leu32Phe (Mus musculus, UniProt O08966, L32F); experiment: Uptake by HEK293 cells overexpressing Leu32Phe mouse Oct1; format: cell-based; conditions: 50 μM fenoterol, 2 min, transient transfection
T4 construct: expressed in transfected cells
T4 sequence (O08966 1-556 L32F): T2 sequence (O08966 1-556) with L32F
Experimental: as §4, §5
as §3, with “Cells were washed with 1 ml prewarmed (37 °C) HBSS+, and the uptake was initiated by adding 400 μl of prewarmed HBSS+ containing the substrate. Uptake was allowed for exactly 2 min and afterward stopped by adding 2 ml ice-cold HBSS+.” left out, “([51]). […]” for “([51]).”

human OCT1 Phe32Leu = target: T5, human OCT1 Phe32Leu (Homo sapiens, UniProt O15245, F32L); experiment: Uptake by HEK293 cells overexpressing Phe32Leu human OCT1; format: cell-based; conditions: 50 μM fenoterol, 2 min, transient transfection
T5 construct: expressed in transfected cells
T5 sequence (O15245 1-554 F32L): T1 sequence (O15245 1-554) with F32L
Experimental: as §4, §5
as §3, with “Cells were washed with 1 ml prewarmed (37 °C) HBSS+, and the uptake was initiated by adding 400 μl of prewarmed HBSS+ containing the substrate. Uptake was allowed for exactly 2 min and afterward stopped by adding 2 ml ice-cold HBSS+.” left out, “([51]). […]” for “([51]).”

[1] = target: T6, human OCT1 with mouse TMH1 (human–mouse chimeric OCT1) (Homo sapiens, UniProt O15245, A31S/C36Y/F32L/I24L/L28I); experiment: Uptake by HEK293 cells transiently overexpressing chimeric human OCT1 carrying mouse TMH1; format: cell-based; conditions: 50 μM fenoterol, 2 min, transient transfection
T6 construct: expressed in transfected cells
T6 sequence (O15245 1-554 I24L/L28I/A31S/F32L/C36Y): T1 sequence (O15245 1-554) with I24L, L28I, A31S, F32L, C36Y
Experimental: as §4, §5
as §3, with “Cells were washed with 1 ml prewarmed (37 °C) HBSS+, and the uptake was initiated by adding 400 μl of prewarmed HBSS+ containing the substrate. Uptake was allowed for exactly 2 min and afterward stopped by adding 2 ml ice-cold HBSS+.” left out, “([51]). […]” for “([51]).”

mouse Oct1 Tyr36Cys = mouse Oct1 Tyr36Cys (Mus musculus, UniProt O08966, Y36C); conditions: 50 μM fenoterol, 2 min, transient transfection, versus mouse wildtype
Experimental: as §4, §5
as §3, with “Cells were washed with 1 ml prewarmed (37 °C) HBSS+, and the uptake was initiated by adding 400 μl of prewarmed HBSS+ containing the substrate. Uptake was allowed for exactly 2 min and afterward stopped by adding 2 ml ice-cold HBSS+.” left out, “([51]). […]” for “([51]).”

| Compound | vmax ± SD, hOCT1 (human OCT1) | vmax ± SD, mOct1 (mouse Oct1) | fold increase of fenoterol uptake of human OCT1 by Cys36Tyr (human OCT1 Cys36Tyr; 50 μM fenoterol, versus human wildtype) | fenoterol uptake related to the uptake of the mouse ortholog (human OCT1 Cys36Tyr; Cys36Tyr human OCT1, 50 μM fenoterol) | effect of Leu32Phe on fenoterol uptake (mouse Oct1 Leu32Phe) | effect of Phe32Leu on fenoterol uptake (human OCT1 Phe32Leu) | difference in uptake between human and mouse OCT1 at low concentration (human OCT1) | fenoterol uptake related to the uptake of the mouse ortholog (human OCT1) | fold lower capacity (vmax) of human than of mouse OCT1 (human OCT1) | increase of fenoterol uptake compared with the human wildtype [1] | reduction of fenoterol uptake by Tyr36Cys in mouse Oct1 (mouse Oct1 Tyr36Cys) |
| --- | --- | --- | --- | --- | --- | --- | --- | --- | --- | --- | --- |
| [H]/N=C(/N)N/C(=N/[H])NCCc1ccccc1 [Phenformin] | 1957 ± 418 pmol × min^−1 × mg protein^−1 | 1072 ± 182 pmol × min^−1 × mg protein^−1 | – | – | – | – | – | – | – | – | – |
| CC(Cc1ccc(O)cc1)NCC(O)c1cc(O)cc(O)c1 (stereo not shown) [Fenoterol] | 90.5 ± 19.3 pmol × min^−1 × mg protein^−1 | 780.8 ± 68.5 pmol × min^−1 × mg protein^−1 | 4.8 fold | 49.8% | did not affect | did not affect | did not see differences in uptake | 10.5% | 8.8 fold | 25% | 90% |

Where a chain is given by its changes, count along the chain named.
